Experiment [1] has as its target T1, d-Opioid (Homo sapiens, UniProt P41143). In words: GTPgammaS assay, d-Opioid. The conditions noted are these: for EC50: read-out: d-Opioid EC50.
Experiment [2] addresses T2, k-Opioid (Homo sapiens, UniProt P41145). In words: GTPgammaS assay, k-Opioid. The note with it: for EC50: read-out: k-Opioid EC50.
For experiment [3], the target named is T2, k-Opioid. In words: k-Opioid receptor radio-binding assay. The conditions noted are these: read-out: k-Opioid Ki.
The target of experiment [4] is μ-Opioid (Homo sapiens, UniProt P35372). In words: GTPgammaS assay, μ-Opioid. The note with it: for EC50: read-out: μ-Opioid EC50.
The target in experiment [5] is ORL1 receptor (Homo sapiens, UniProt P41146). In words: ORL1 receptor binding (3H-nociceptin/orphanin FQ, CHO-ORL1 membranes).
Experiment [6] deals with rat. The experiment in a line: Chung model: mononeuropathic pain after spinal nerve ligation. The note with it: test dose 100 μg/kg i.v.
Experiment [7] deals with T1, d-Opioid. In words: d-Opioid receptor radio-binding assay. The conditions noted are these: read-out: d-Opioid Ki.
Experiment [8] has as its target human μ-opiate receptor (Homo sapiens, UniProt P35372). The experiment in a line: μ-opioid receptor binding ([3H]-naloxone, CHO-K1 membranes).
In experiment [9] the test system is mouse. In words: STZ, mouse: diabetic polyneuropathy. The note with it: 100 μg/kg i.p.
Setting [10] is: read-out: Ki (ORL1), binding affinity.
The mark [11] stands for this setting: read-out: ORL1 Ki, radio-binding assay (Table 6).
[12] abbreviates: read-out: Ki (μ), binding affinity.
Setting [13] is: read-out: μ-Opioid Ki, radio-binding assay (Table 6).

Read-outs that look alike come from different tables or passages of the source.

These results are taken from patent publication US20160159787A1, “Cis-tetrahydro-spiro(cyclohexane-1, 1' -pyrido[3,4-b]indole)-4-amine Compounds” (published 2016).

Consider `COc1ccc(CC(=O)N2CCc3c4ccccc4[nH]c3[C@]23CC[C@](c2cccc(F)c2)(N(C)C)CC3)cc1OC`, for which, in experiment [1], the d-Opioid relative efficacy turned out to be 106%. In addition, the EC50 in [1] was determined as 2680 nM; in experiment [2], 1170 nM; in [4], 49 nM. The molecule further registered a k-Opioid relative efficacy in experiment [2] of 85%. For the same molecule, the inhibitory constant (Ki) in experiment [3] was found to be 542 nM; in experiment [5] (setting [10]) it was 70 nM; in experiment [5] (setting [11]), 70 nM; in experiment [7], 791 nM; in experiment [8] (setting [12]), 450 nM; in experiment [8] (setting [13]), 450 nM. Moreover, in experiment [4], the μ-Opioid relative efficacy was 94%. The “ratio of ORL1 receptor affinity to μ-opioid receptor affinity” value in experiment [5] (1/[Ki(ORL1)/Ki(μ)]) is recorded as “about 6”. Also, the “Chung, rat: antinociceptive action in healthy tissue” value in experiment [6] is reported as “no”. Moreover, the “STZ, mouse: antinociceptive action in non-neuropathic control animals” value in experiment [9] is “no antinociceptive action in”.
As to `COc1ccc(CC(=O)N2CCc3c4ccccc4[nH]c3[C@]23CC[C@@](c2cccc(F)c2)(N(C)C)CC3)cc1OC`, the d-Opioid relative efficacy in experiment [1] came to 82%. Also, the concentration for a half-maximal effect (EC50) came out at 5 nM in [1], 29 nM in [2] and 3 nM in [4]. Besides, the k-Opioid relative efficacy in [2] was determined as 64%. In addition, the inhibition constant Ki in [3] was determined as 4 nM; in [5] (setting [10]), 1 nM; in [5] (setting [11]) it was 1 nM; in experiment [7], 1 nM; in experiment [8] (setting [12]), 1 nM; in experiment [8] (setting [13]), 1 nM. For the same molecule, the μ-Opioid relative efficacy in experiment [4] was determined as 88%.
